This is an account of results in ChEMBL document CHEMBL1134503, “Synthesis, antifolate, and antitumor activities of classical and nonclassical 2-amino-4-oxo-5-substituted-pyrrolo[2,3-d]pyrimidines” (J Med Chem, 2001).

By UniProt entry, the sequences of proteins in these tests, tags left out.
UniProt C3SWJ7, whole entry: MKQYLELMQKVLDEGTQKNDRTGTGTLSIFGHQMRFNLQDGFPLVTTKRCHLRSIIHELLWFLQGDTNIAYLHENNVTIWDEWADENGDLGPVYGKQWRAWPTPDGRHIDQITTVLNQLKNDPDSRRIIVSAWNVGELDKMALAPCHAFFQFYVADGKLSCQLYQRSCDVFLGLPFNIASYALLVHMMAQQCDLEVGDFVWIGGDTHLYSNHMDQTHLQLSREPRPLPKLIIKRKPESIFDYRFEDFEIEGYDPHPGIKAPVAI

As a reminder, the IC50 is the concentration that inhibits the measured activity by half.

The target in one assay is Thymidylate synthase (Escherichia coli, UniProt C3SWJ7). In words: Inhibitory activity against Escherichia coli thymidylate synthase.
In assay [1] the target is T1, Bifunctional dihydrofolate reductase-thymidylate synthase (Toxoplasma gondii, UniProt Q07422).
T1 sequence (Q07422 whole entry): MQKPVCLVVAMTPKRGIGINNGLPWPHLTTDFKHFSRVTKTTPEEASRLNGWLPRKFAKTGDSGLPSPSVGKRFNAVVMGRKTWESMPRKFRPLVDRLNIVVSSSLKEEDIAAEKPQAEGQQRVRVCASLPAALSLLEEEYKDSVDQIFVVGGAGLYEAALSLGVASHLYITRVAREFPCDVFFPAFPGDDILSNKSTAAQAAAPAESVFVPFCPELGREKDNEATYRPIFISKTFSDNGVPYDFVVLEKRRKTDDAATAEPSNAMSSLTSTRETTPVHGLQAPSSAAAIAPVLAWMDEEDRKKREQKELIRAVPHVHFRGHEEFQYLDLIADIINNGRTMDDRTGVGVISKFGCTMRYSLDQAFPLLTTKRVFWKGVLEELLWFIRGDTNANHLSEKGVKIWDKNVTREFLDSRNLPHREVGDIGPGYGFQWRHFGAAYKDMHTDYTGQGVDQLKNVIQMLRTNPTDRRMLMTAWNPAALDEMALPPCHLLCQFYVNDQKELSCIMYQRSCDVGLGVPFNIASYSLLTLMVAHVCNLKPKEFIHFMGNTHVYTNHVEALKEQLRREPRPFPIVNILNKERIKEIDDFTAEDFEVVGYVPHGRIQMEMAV
Description: Inhibitory activity against Toxoplasma gondii dihydrofolate reductase.

With `Nc1nc2[nH]cc(CCc3ccc(C(=O)N[C@@H](CCC(=O)O)C(=O)O)cc3)c2c(=O)[nH]1` [PEMETREXED], the results for the IC50 (against Thymidylate synthase; in assay [1]) were 110 µM and 2.3 µM, respectively.
